The numbers were not newly measured in patent publication EP3677259A1, “USE OF ARACHIDONYL TRIFLUOROMETHYL KETONE” (Mosaiques Diagnostics And Therapeutics AG, priority 2019, dated 2020), which cites them from elsewhere.

One may read the IC50 as the concentration needed to halve the response being measured.

The data set has as its target T1, Ca2+-dependent cytosolic cPLA2 (Homo sapiens, UniProt P47712).
T1 sequence (P47712 1-749): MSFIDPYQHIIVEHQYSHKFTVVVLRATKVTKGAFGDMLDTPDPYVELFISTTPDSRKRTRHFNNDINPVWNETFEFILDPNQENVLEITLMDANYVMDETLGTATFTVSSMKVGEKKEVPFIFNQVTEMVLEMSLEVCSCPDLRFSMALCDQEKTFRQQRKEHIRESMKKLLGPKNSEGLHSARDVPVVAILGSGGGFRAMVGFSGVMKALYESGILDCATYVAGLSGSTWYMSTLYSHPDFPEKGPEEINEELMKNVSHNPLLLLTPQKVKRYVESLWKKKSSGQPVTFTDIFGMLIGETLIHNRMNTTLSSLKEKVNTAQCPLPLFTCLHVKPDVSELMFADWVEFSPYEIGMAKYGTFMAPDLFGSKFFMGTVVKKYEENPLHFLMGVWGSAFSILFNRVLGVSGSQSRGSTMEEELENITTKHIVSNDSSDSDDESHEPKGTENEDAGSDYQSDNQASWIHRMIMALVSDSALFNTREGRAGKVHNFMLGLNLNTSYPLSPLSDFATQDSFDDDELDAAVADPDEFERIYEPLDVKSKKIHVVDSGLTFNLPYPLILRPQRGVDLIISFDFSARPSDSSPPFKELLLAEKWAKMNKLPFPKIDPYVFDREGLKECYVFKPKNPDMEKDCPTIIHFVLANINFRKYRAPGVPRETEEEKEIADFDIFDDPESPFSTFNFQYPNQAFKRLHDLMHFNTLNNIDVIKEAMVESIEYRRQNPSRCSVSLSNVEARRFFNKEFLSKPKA
The conditions noted are these: cited from earlier work.

“Palmityl trifluoromethylketone [PACOCF3]”: the IC50 is 45 µM.
